The target of this assay is Retinal rod rhodopsin-sensitive cGMP 3',5'-cyclic phosphodiesterase subunit delta (Homo sapiens, UniProt O43924). Nature of the assay: Inhibition of N-terminal His6-tagged PDEdelta (unknown origin) expressed in Escherichia coli BL21(DE3)-condon plus-RIL cells after 4 hrs by fluorescence polarization assay.

By UniProt entry, the sequences of proteins in these tests, tags left out. Where a name states a change or a piece, a line headed by the entry shows the natural chain unless it says otherwise.
UniProt O43924: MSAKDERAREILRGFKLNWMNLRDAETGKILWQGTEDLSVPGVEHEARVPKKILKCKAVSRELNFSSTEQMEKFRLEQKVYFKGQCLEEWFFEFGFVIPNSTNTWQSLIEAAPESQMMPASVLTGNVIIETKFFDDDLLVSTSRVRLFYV

One molecule from ChEMBL document CHEMBL4411282, “Fragment-based drug discovery of triazole inhibitors to block PDEδ-RAS protein-protein interaction” (Eur J Med Chem, 2019) can be followed below.

What is called IC50 is the concentration at which inhibition is half-maximal.

As for `c1ccc(Cn2c(-c3ccc(OC[C@H](C4CCNCC4)n4c(-c5ccccc5)nc5ccccc54)cc3)nc3ccccc32)cc1`, the concentration for half-maximal inhibition (IC50) was found to be 21 nM.
